Measured values: ChEMBL document CHEMBL1145020, “Synthesis and structure-activity relationships of 6,7-disubstituted 4-anilinoquinoline-3-carbonitriles. The design of an orally active, irreversible inhibitor of the tyrosine kinase activity of the epidermal growth factor receptor (EGFR) and the human epidermal growth factor receptor-2 (HER-2)” (J Med Chem, 2003)

Sequences of proteins named here, by UniProt entry; tags and fusion partners are left off.
UniProt P00533, whole entry: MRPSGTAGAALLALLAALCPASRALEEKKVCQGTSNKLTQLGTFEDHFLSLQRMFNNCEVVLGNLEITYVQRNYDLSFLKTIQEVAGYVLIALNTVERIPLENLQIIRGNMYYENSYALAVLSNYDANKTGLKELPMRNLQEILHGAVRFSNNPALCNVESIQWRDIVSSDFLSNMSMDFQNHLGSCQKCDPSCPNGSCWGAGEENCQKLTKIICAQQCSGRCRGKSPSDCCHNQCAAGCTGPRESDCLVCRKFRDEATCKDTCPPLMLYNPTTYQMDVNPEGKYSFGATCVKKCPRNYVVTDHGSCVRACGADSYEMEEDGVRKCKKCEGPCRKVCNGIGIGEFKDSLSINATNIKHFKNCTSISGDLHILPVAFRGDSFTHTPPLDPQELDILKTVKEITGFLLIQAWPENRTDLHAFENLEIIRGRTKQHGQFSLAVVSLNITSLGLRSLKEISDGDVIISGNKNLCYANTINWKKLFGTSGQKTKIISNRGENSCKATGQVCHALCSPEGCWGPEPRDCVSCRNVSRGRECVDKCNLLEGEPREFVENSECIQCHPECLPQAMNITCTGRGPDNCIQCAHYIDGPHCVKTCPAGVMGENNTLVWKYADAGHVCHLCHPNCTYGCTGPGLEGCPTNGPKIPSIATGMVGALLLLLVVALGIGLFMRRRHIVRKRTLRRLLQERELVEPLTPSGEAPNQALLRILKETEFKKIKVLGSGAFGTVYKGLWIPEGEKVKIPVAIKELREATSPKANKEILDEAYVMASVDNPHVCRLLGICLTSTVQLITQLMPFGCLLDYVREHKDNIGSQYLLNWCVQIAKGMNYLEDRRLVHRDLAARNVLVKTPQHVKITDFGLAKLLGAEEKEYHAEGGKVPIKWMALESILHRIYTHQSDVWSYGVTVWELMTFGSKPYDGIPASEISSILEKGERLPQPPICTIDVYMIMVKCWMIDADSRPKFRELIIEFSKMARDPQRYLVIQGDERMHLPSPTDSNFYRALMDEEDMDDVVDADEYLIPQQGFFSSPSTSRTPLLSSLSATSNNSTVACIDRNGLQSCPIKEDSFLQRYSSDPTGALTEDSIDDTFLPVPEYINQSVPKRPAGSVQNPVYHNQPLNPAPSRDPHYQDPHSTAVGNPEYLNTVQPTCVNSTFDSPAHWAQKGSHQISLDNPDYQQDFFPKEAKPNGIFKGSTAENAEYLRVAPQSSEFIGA

Legend:
[1] = test system: A-431; assay: Concentration required to inhibit growth of human carcinoma epidermoid (A431) cell line; type: functional, cell-based
[2] = biological target: Epidermal growth factor receptor (Homo sapiens, UniProt P00533)

Structure (SMILES)	IC50 [1]	IC50 [2]
C=C(CN1CCOCC1)C(=O)Nc1ccc2ncc(C#N)c(Nc3ccc(F)c(Cl)c3)c2c1	260 nM	2700 nM
CCOc1cc2ncc(C#N)c(Nc3cccc(Br)c3)c2cc1NC(=O)/C=C/CN(C)C	130 nM	–
CCOc1cc2ncc(C#N)c(Nc3cccc(Br)c3)c2cc1NC(=O)/C=C/CN1CCOCC1	140 nM	10300 nM
